In US5294609A, “DNA gyrase inhibitors and pharmaceutical preparations therefor” (Hoffmann-LaRoche Inc., priority 1991, dated 1994):

Assays:
E. coli DC2 = test: Antibacterial activity in vitro (MIC, agar dilution); type: cell-based; conditions: Escherichia coli, agar dilution (BB2 + 1% Isovitalex + 7.5% sheep blood + metadione), inoculum 10^4 CFU/spot, read-out: minimum inhibitory concentration (MIC)
Description: (§1) In the following table there are complied the minimum inhibitory concentrations (MIC; μg/ml) of some representative compounds of formula I against a series of pathogenic microorganisms.
(§2) Agar dilution (BB2 + 1% Isovitalex + 7.5% sheep blood + metadione),
(§3) Inoculum: 10^4 CFU/spot;

N. meningitidis 69480 = test: as above; type: cell-based; conditions: Neisseria meningitidis, agar dilution (BB2 + 1% Isovitalex + 7.5% sheep blood + metadione), inoculum 10^4 CFU/spot, read-out: minimum inhibitory concentration (MIC)
Description: as §1, §2, §3

Row | Structure (SMILES) | MIC (E. coli DC2) [µg/mL] | MIC (N. meningitidis 69480) [µg/mL]
1 | COC(=O)[C@@H]1CSCc2c(O)cc(OC)c(C)c2C(=O)OC[C@H](O)C(=O)N1 [Example 41, methyl (4R,7S)-1,3,4,5,6,7,8,10-octahydro-7,14-dihydroxy-12-methoxy-11-methyl-6,10-dioxo-9,2,5-benzoxathiaazacyclododecine-4-carboxylate] | 64 | –
2 | CCOC(=O)[C@@H]1CSCc2c(O)cc(OC)c(C)c2C(=O)OC[C@H](NC=O)C(=O)N1 [Example 69, ethyl (4R,7S)-7-formamido-1,3,4,5,6,7,8,10-octahydro-14-hydroxy-12-methoxy-11-methyl-6,10-dioxo-9,2,5-benzoxathiaazacyclododecine-4-carboxylate] | – | 2
